Our source for the Polydispersity index and Average particle size values is US20040254352A1, “Lipid-polymer-conjugates” (priority 2001, published 2004).

Values joined by “and” are separate entries in the source; they are usually repeats but may differ in a detail not shown here. Identical values can stand only once.

This data set in a line: Particle size and polydispersity of liposomes by (dynamic) light scattering. Particulars: DPPC/cholesterol/conjugate liposomes of Table 1 (Example 21); for Average particle size: dynamic light scattering. It is filed as physicochemical. On the procedure: The lipid loss during preparation of the liposomes was 25%, determined by comparing the final radioactivity of the preparation with the activity before the extrusion procedure. The suspension of liposomes was stored in a nitrogen atmosphere at 4° C. Liposomes were prepared using the film method, as described in example 20. Instead of egg phosphatidylcholine dipalmitoyl phosphatidylcholine was used. 5 mM HEPES buffer was added to the dry lipid film and shaken during 5 minutes in the presence of glass beads in order to enable complete hydration of the lipid film. The liposomes were sized by extrusion 12 times through 2 stacked PC membranes having pore sizes of 100 and 200 nm. […] See table 1 for the properties of the liposomal preparations.

As for Poly(DL-glutamine DODASuc [Ex. 16], the Polydispersity index came to 0.059 and the Average particle size is 156.3 ± 3.2 nm. Poly(DL-serine) DODASuc [Ex. 13] registered a Polydispersity index of 0.159 and an Average particle size of 162.7 ± 1.6 nm. Turning to “Poly(2-hydroxyethyl)-L-asparagine DODASuc [Ex. 11]”, the Average particle size is 146.0 ± 2.1 nm and 147.0 ± 1.1 nm and 141.7 ± 2.3 nm and 152.9 ± 3.4 nm and 167.7 ± 0.6 nm and 149.9 ± 2.3 nm and 162.7 ± .024 nm. On the same count and under the same terms, the same measure for “poly(HEG-co-glutamic acid)diaminobutane DODASuc; 5% glutamic acid [Ex. 8]”: 180.7 ± 6.1 nm and 167.7 ± 0.6 nm. Regarding Poly(DL-asparagine) DODASuc [Ex. 17], the Polydispersity index is given as 0.116 and the Average particle size is listed as 164.7 ± 4.0 nm.
